Results on 1 compound are retold here after article PMC12198324.

The chains behind the UniProt entries cited, without tags or fusion partners.
UniProt P33535, whole entry: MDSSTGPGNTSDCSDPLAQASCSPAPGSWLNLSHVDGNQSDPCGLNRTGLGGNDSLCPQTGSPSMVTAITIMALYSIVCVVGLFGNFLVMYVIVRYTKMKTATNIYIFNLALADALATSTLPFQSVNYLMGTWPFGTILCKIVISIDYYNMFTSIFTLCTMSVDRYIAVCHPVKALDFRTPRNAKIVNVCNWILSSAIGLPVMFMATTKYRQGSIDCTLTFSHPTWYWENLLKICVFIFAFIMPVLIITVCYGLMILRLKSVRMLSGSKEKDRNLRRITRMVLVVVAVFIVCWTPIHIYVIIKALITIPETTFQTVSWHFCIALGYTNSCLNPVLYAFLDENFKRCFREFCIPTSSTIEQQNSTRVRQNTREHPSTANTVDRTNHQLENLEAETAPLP

The target of the assay is µOR (Rattus norvegicus, UniProt P33535). Nature of the assay: Antagonist reversal of opioid-induced cAMP inhibition in HEK293-µOR cells ([^3H]-adenine labelling). The conditions noted are these: antagonist 100 µM.

In the case of `C=C1CC[C@@]2(O)[C@H]3Cc4ccc(O)c5c4[C@@]2(CCN3CC2CC2)[C@H]1O5`, the “Remaining opioid effect at 100 µM” value reads like this: (agonist CAR (0.01 µM)) 6.4 ± 9%; (agonist FEN (0.15 µM)) 0.2 ± 4%; (agonist REMI (0.5 µM)) 6.3 ± 5%.
